Data as given in patent US11427548B2 (Arvinas Operations, Inc., priority 2015, dated 2022).

By UniProt entry, the sequences of proteins in these tests, tags left out.
UniProt P10275, whole entry: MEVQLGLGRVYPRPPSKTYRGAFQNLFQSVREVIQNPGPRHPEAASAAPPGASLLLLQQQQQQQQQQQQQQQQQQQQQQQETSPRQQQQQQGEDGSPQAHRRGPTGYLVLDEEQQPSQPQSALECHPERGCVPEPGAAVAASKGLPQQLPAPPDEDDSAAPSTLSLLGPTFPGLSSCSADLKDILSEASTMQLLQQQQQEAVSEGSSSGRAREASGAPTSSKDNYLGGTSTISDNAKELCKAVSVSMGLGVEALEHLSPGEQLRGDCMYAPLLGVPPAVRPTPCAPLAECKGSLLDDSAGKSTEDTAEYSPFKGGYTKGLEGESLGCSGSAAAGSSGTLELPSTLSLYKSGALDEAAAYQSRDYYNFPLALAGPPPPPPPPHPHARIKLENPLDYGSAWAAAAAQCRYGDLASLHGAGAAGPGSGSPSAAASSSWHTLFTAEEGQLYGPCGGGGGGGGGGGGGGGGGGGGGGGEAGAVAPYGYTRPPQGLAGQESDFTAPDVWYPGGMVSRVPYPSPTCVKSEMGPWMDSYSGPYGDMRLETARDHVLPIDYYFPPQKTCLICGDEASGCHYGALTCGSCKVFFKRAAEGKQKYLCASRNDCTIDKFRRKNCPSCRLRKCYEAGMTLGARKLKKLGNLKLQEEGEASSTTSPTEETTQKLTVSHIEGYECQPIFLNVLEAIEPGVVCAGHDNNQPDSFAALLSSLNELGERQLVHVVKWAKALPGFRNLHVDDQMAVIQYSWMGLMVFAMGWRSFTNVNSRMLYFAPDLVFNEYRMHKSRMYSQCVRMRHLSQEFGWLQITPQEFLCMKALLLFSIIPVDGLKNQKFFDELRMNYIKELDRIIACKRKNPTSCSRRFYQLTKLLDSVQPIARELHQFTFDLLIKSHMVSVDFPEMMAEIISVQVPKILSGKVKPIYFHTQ
UniProt P10275, whole entry T878A: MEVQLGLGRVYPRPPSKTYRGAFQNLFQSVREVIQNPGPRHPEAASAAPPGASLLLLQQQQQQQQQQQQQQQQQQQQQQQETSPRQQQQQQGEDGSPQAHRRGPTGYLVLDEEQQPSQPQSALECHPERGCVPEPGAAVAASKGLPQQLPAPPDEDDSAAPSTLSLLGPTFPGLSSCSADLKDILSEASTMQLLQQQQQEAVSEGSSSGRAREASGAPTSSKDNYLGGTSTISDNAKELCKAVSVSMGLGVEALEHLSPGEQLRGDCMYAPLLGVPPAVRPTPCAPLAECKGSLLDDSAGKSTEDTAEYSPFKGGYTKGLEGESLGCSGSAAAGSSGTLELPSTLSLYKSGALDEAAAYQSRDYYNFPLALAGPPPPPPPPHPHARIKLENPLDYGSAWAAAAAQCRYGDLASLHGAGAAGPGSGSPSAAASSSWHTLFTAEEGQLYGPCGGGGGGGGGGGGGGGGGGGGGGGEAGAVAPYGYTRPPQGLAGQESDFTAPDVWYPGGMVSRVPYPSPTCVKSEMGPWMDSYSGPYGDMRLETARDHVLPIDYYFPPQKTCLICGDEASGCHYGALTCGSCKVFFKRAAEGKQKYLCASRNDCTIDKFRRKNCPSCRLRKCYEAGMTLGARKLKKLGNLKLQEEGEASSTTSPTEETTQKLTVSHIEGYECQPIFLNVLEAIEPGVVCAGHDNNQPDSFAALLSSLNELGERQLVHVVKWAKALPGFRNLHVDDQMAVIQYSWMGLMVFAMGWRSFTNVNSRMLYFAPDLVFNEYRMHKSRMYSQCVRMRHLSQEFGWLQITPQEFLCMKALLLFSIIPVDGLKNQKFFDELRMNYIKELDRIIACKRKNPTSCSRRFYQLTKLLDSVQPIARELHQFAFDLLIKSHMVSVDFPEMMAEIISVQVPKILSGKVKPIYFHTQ
UniProt P40337, whole entry: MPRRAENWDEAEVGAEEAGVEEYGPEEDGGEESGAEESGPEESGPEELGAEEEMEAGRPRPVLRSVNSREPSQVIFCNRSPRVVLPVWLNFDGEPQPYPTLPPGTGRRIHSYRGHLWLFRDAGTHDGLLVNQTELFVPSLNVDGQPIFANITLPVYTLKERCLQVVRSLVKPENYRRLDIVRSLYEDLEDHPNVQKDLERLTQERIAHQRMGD
UniProt Q15370, whole entry partner: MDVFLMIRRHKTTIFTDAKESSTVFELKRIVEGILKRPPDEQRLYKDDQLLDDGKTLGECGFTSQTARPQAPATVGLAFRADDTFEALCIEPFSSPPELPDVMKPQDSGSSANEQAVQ
UniProt Q15369, whole entry partner: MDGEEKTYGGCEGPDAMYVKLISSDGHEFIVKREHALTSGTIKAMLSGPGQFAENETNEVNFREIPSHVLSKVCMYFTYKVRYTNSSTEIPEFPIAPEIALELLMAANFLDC

Legend:
Androgen Receptor [1] = molecular target: Androgen Receptor (Homo sapiens, UniProt P10275); test: Androgen Receptor ELISA assay (PathScan AR ELISA) in VCaP cells: AR degradation, Dmax and DC50; assay type: cell-based
Androgen Receptor [2] = molecular target: Androgen Receptor (Homo sapiens, UniProt P10275+P40337, T878A); test: Androgen Receptor ELISA assay (PathScan AR ELISA) in LNCaP cells: AR degradation, Dmax and DC50; assay type: cell-based

SMILES	VCaP Dmax (%) (Androgen Receptor [1]; Table 34)	DC50 (Androgen Receptor [1]; read-out: VCaP DC50, Table 34)	further results
Cc1ncoc1-c1ccc([C@H](C)NC(=O)[C@@H]2C[C@@H](O)CN2C(=O)[C@@H](NC(=O)COC[C@H]2CC3(C2)C[C@H](COc2ccc(N4C(=S)N(c5ccc(C#N)c(C(F)(F)F)c5)C(=O)C4(C)C)cc2)C3)C(C)(C)C)cc1 (single isomer, unassigned)	++++ (71% ≤ Dmax)	< 50 nM	
Cc1ncsc1-c1ccc(CNC(=O)[C@@H]2C[C@@H](O)CN2C(=O)[C@H](C(C)C)N2Cc3ccccc3C2=O)c(OCCOCCOCCOCCOCCOCCOc2ccc(N3C(=S)N(c4ccc(C#N)c(C(F)(F)F)c4)C(=O)C3(C)C)cc2)c1			LNCaP Dmax (%) (Androgen Receptor [2]; highest percentage of Androgen Receptor degradation): +++ (51% ≤ Dmax ≤ 70%); DC50 (Androgen Receptor [2]; read-out: LNCaP DC50, concentration that caused 50% Androgen Receptor degradation): 51 to 500 nM
C[C@H](NC(=O)[C@@H]1C[C@@H](O)CN1C(=O)[C@@H](NC(=O)COCCCOCCCCCOc1ccc(N2C(=S)N(c3ccc(C#N)c(C(F)(F)F)c3)C(=O)C2(C)C)cc1)C(C)(C)C)c1ccc(-n2ccnc2)cc1			VCaP Dmax (%) (Androgen Receptor [1]; Table 36): ++ (26% ≤ Dmax ≤ 50%); DC50 (Androgen Receptor [1]; read-out: VCaP DC50, Table 36): > 501 nM
Cc1ncoc1-c1ccc(CNC(=O)[C@@H]2C[C@@H](O)CN2C(=O)[C@@H](NC(=O)COCCCCC(=O)N2CC=C(c3ccc(N4C(=S)N(c5ccc(C#N)c(Cl)c5)C(=O)C4(C)C)cc3)CC2)C(C)(C)C)cc1	+++ (51% ≤ Dmax ≤ 70%)	< 50 nM	

Read-outs that look alike come from different tables or passages of the source.
